In patent US20080234202A1, “Non-natural amino acids and neurotensin analogues” (priority 2004, published 2008):
“Also recorded” adds a separate entry of the source. Like-named read-outs stand apart in the source and are kept apart here.

The chains behind the UniProt entries cited, without tags or fusion partners.
UniProt O95665, whole entry, species assumed: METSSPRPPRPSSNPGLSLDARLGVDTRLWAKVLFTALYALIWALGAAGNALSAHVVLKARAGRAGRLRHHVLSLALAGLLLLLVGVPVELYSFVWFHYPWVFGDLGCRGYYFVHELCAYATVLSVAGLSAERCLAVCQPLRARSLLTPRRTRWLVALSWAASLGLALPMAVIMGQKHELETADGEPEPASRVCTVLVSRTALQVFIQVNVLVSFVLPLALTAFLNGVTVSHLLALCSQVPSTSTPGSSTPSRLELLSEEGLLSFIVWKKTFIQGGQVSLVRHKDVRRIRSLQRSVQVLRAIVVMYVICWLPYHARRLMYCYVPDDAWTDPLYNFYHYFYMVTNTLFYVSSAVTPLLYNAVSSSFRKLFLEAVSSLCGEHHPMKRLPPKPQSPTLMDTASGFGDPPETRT
UniProt P20789, whole entry: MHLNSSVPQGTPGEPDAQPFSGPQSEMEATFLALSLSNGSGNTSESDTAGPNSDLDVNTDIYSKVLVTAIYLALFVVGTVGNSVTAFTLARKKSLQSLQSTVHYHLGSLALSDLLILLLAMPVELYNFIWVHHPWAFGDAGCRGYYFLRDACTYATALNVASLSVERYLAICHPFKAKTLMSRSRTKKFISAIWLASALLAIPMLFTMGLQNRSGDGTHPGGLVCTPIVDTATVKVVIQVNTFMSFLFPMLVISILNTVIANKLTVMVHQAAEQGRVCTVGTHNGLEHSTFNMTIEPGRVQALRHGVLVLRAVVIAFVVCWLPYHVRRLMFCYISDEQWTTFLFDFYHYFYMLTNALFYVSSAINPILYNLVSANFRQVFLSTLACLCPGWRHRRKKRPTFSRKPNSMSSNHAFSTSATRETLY

What was measured:
NTR-2 = NTR-2 (Homo sapiens, UniProt O95665); experiment: Competitive NTR-2 binding versus radiolabeled NT[8-13]; conditions: -NH2 of ABS1 changed to -N3
[1] = Brain distribution of ABS201 in rats
Description: (§1) At selected time points, blood was removed or brain harvested and the concentration of the peptide analog determined using LC/MS/MS.
(§2) These samples were then used for the determination of plasma and brain drug levels by LC/MS/MS for estimating BBB penetration and pharmacokinetic parameters.

[2] = Catalepsy, horizontal bar test; conditions: IP 5 mg/kg
NTR-1 = NTR-1 (Rattus norvegicus, UniProt P20789); experiment: Hypothermia induction in rats (rectal temperature); assay type: in vivo
[3] = 100 μg/mL
[4] = Blood and plasma pharmacokinetics of ABS201 in rats
Description: as §1, §2

Row | Compound | improvement of NTR-2 to NTR-1 selectivity (NTR-2) | levels in brain following IV and PO administration ([1]; IV 1 mg/kg, PO 30 mg/kg) | levels in brain after IV administration ([1]; IV 5 mg/kg) | levels in brain after oral administration ([1]; oral 50 mg/kg, 15 minutes post) | metabolites in whole rat blood (100 μg/mL) | metabolism in whole blood or plasma (5 or 30 min incubation at 37° C.) | catalepsy after peripheral administration [2] | ED50 (NTR-1; ip, read-out: ED50 for hypothermic induction, IP, range 0.1-10 mg/kg) | ED50 (NTR-1; po, read-out: ED50 for hypothermic induction, oral, administered orally) | partition between cellular and serum fractions of whole rat blood [3] | plasma levels following oral administration ([4]; oral 30 mg/kg, non fasted rats) | levels in whole blood after oral administration ([4]; oral 50 mg/kg)
1 | CC(C)C[C@H](NC(=O)[C@@H](NC(=O)[C@H](Cc1ccc(O)cc1)NC(=O)[C@@H]1CCCN1C(=O)[C@H](CCCNC(=N)N)NC(=O)[C@H](CCCCCN)N=[N+]=[N-])C(C)(C)C)C(=O)O [ABS13, N3-L-homolysine-Arg-Pro-Tyr-tertLeu-Leu-COOH] | ~10 fold | – | – | – | – | – | – | – | – | – | – | –
2 | CC(C)C[C@H](NC(=O)[C@@H](NC(=O)[C@H](Cc1ccc(O)cc1)NC(=O)[C@@H]1CCCN1C(=O)[C@H](CCCNC(=N)N)NC(=O)[C@@H](C)CCCCCN)C(C)(C)C)C(=O)O [ABS201, hLys-Arg-Pro-Tyr-t-Leu-Leu] | – | below the LLOD at all times | below the LLOD at all times | measurable quantities of ABS201 were detected in brains of 2 of 3 animals | No metabolites | no evidence of metabolism | does not induce catalepsy; also recorded: Neither ABS201 (5 mg/kg) nor saline caused catalepsy; also recorded: does not induce a cataleptic state | 0.943 mg/kg | ~10 mg/kg | distributes almost evenly between the cellular and serum fractions | below the LLOD at all times | below the LLOD at all times
